Earlier results as cited in paper PMC10527924 (Toxicology in vitro : an international journal published in …, 2023).

Details: not measured for this paper; no reference given; cited from earlier work

C[C@]12CC[C@H]3[C@@H](CCC4=CC(=O)CC[C@@]43C)[C@@H]1CC[C@@H]2O [testosterone]
Log Kow (n-octanol-water partition coefficient): 3.32
